Experimental data: ChEMBL document CHEMBL1641472, “Discovery of novel phenylpyridone derivatives as potent and selective MCH1R antagonists” (Bioorg Med Chem, 2011)

Chains of the proteins cited; added tags and fusions are not shown. Lines headed by an entry give the natural chain unless they say otherwise; changes in a name come on top.
UniProt Q99705: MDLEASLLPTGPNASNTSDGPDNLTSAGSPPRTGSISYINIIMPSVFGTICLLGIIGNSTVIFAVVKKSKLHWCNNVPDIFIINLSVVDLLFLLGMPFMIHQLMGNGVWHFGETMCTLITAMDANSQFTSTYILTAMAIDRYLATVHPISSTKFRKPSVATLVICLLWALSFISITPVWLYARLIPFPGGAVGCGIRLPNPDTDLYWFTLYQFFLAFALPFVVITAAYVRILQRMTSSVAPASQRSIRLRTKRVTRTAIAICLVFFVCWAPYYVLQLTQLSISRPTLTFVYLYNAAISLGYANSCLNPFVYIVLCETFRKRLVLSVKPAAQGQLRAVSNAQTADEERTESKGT

Molecular target: Melanin-concentrating hormone receptor 1 (Homo sapiens, UniProt Q99705)
Test: Displacement of [125I]MCH from human MCHR1 expressed in CHO cells by competition binding assay
Format: cell-based
Outline: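 Competition binding against [¹²⁵I]-MCH radioligand on membranes from CHO cells expressing human MCH1R; IC50 values are means of two experiments.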

Compound: CCN(CC)CCNc1ccc(-n2ccc(OCc3ccccc3)cc2=O)cc1
- pIC50: 8.17

pIC50: −log10 of the molar value.
